The assay deals with D(2) dopamine receptor (Homo sapiens, UniProt P14416).

Sequences of proteins named here, by UniProt entry; tags and fusion partners are left off.
UniProt P14416, whole entry: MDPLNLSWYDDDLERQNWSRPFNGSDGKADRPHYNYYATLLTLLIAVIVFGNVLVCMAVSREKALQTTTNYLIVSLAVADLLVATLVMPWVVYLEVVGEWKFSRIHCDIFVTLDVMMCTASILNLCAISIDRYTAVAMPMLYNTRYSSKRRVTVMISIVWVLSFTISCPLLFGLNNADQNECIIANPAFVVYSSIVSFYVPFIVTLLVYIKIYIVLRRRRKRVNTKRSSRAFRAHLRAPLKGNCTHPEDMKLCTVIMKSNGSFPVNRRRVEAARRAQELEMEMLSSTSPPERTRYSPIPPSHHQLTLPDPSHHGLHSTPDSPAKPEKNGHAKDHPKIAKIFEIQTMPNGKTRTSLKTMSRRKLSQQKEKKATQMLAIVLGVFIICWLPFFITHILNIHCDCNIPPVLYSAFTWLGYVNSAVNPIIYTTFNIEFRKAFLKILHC

Our source for the Ki values is ChEMBL document CHEMBL4665835, “Synthesis and pharmacological evaluation of 11-(1,6-dimethyl-1,2,3,6-tetrahydropyridin-4-yl)-5H-dibenzo[b,e][1,4]diazepines with clozapine-like receptor occupancy at dopamine D/D receptor” (Bioorg Med Chem Lett, 2020).

`CN1CCN([C@@H]2C[C@@H](c3ccccc3)c3ccc(Cl)cc32)CC1(C)C` [ZICRONAPINE] came in with a Ki of 28 nM.

In general, Ki refers to the dissociation constant of the complex between target and ligand, obtained from inhibition or displacement.
